Measured values from patent US7098039B1, “Analysis of a sample to determine its characteristic cycle time” (The Victoria University of Manchester, priority 1998, dated 2006).

Test system: peptide sequence VCDWWGWGIC (mimic of the binding of drugs by the drug efflux protein P-glycoprotein)
Assay: Quenching of the natural tryptophan fluorescence of peptide VCDWWGWGIC on drug binding (FIG. 7h titration)
Conditions: linear sequence or cyclised, result in words
Text: The system illustrated in FIG. 7 may be a drug binding to a protein or peptide comprising fluorescent amino acids at the site of binding.
The number in brackets, following each titration, is the relative intensity of the peak at 359.25 nm, indicating the degree of quenching.

COc1cc2c(c(OC)c1OC)-c1ccc(OC)c(=O)cc1[C@@H](NC(C)=O)CC2 [Colchicine]
natural tryptophan fluorescence of the peptide quenched by the drug: quenched
